Tested on: dopamine receptor D1
Conditions: HEK293A cells, FIG. 4B

CCCN1CCC[C@@H]2Cc3n[nH]cc3C[C@H]21 [quinpirole]
response of the dopamine receptor D1 fluorescent biosensor (normalized intensity): did not response
